These results are taken from publication PMC10238739, “Interaction with single-stranded DNA-binding protein modulates Escherichia coli RadD DNA repair activities” (The Journal of Biological Chemistry, 2023).

The test addresses T1, Escherichia coli RadD, wild type (E. coli, UniProt P33919 1-586).
T1 construct: also called WT RadD
T1 sequence: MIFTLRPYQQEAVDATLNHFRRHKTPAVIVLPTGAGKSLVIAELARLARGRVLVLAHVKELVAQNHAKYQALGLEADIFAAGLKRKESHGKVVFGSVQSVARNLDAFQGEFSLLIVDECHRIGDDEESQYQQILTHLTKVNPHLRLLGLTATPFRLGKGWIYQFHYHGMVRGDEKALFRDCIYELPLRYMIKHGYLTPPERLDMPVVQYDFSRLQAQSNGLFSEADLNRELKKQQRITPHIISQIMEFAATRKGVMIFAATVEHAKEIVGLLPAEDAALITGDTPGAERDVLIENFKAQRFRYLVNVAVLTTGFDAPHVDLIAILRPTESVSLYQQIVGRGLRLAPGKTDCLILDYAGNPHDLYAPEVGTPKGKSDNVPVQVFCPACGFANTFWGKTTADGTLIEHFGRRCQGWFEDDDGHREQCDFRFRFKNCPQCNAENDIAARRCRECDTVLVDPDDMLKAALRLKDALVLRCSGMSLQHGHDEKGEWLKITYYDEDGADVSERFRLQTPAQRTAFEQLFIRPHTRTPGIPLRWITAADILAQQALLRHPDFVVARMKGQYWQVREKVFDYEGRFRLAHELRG
Description: ammonium sulfate co-precipitation; RadD or variant incubated with full-length SSB and 150 g/L ammonium sulfate; pellet fractions run on 12% SDS-PAGE. The conditions noted are these: both partners purified.

B1: Escherichia coli single-stranded DNA-binding protein (SSB), full-length (natural protein, E. coli, UniProt P0AGE0 1-178, looked up)
chain: MASRGVNKVILVGNLGQDPEVRYMPNGGAVANITLATSESWRDKATGEMKEQTEWHRVVLFGKLAEVASEYLRKGSQVYIEGQLRTRKWTDQSGQDRYTTEVVVNVGGTMQMLGGRQGGGAPAGGNIGGGQPQGGWGQPQQPQGGNQFSGGAQSRPQQSAPAAPSNEPPMDFDDDIPF
notes: also called full-length SSB
On to B1, for which the binding result is listed as “binds”.
